Antibody variant affinities, Ab-14 heavy chain, assay 1

Source: Engelhart et al. 2022 (doi:10.1038/s41597-022-01779-4), MIT Lincoln Laboratory and A-Alpha Bio; data file from the FLAb repository.

All variants were tested on one target, the spike HR2 peptide PDVDLGDISGINAS (SARS-CoV-2).

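Phage display of a naive human antibody library on the peptide gave the parent. Library AAYL49 holds single substitutions and randomly drawn double and triple substitutions in the CDRs. In AlphaSeq, yeast of one mating type display the scFv and yeast of the other type display the target. Mating (16 h, 30 °C) was followed by selection of diploids and sequencing of their barcodes. Each replicate has its own calibration line, from reference interactions of the BCL2 family. Each pool was mated in three replicate cultures.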

Each scFv is VH, three GGGGS repeats, VL, as in the parent Ab-14, and differs from it in the CDRs of the heavy chain only.
VH: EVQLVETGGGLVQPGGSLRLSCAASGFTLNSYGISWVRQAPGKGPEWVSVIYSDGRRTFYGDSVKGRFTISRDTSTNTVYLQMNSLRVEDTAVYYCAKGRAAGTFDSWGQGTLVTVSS
VL: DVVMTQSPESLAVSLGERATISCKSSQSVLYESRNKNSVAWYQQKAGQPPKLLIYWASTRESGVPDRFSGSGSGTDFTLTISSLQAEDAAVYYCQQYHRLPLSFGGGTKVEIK

Changes read parent residue, position, new residue, counted from the first residue of the VH shown.
The Kd shown is the geometric mean over detected replicates; a lower Kd is a better binder.
A pair that was not seen in any replicate is written "not detected"; this usually means weak binding, but a binder can also be missed.
Background: pairings of library AAYL49 with three empty control strains gave a value in 15% of cases (median 11 µM, 5th percentile 680 nM). Values in that range, when seen in few replicates, are hard to tell from nonspecific mating. Also given: how often the same scFv was detected with the empty control strains.

| changes | apparent Kd | seen in | signal with controls |
|---|---|---|---|
| G26V+R56T+A101C | 1.2 µM | 3 of 3 | 0 of 9 |
| G26W+F59K | 260 nM | 1 of 3 | 0 of 9 |
| S31L+V50M+G103D | 540 µM | 2 of 3 | 3 of 9 |
| G33S+D54H+T58P | 72 µM | 2 of 3 | 1 of 9 |
| S35D+I51Q+D62C | 46 µM | 1 of 3 | 1 of 9 |
| D54A+R57Q+K65R | 47 µM | 1 of 3 | 3 of 9 |
| Y52T+R56Q+V64H | 97 µM | 1 of 3 | 2 of 9 |
| G26P+F59K+S107H | 10 µM | 1 of 3 | 1 of 9 |
| I34K+R100G+F105W | not detected | 0 of 3 | 0 of 9 |
| N30W+S31A+G103P | not detected | 0 of 3 | 1 of 9 |
| G26N+R56D+S107H | 5.3 µM | 3 of 3 | 0 of 9 |
| N30M+V64N+G99M | not detected | 0 of 3 | 0 of 9 |
| F27A+G99K+F105L | not detected | 0 of 3 | 2 of 9 |
| F59P+Y60C+D106R | not detected | 0 of 3 | 0 of 9 |
| R56V+T104A | 6.0 nM | 3 of 3 | 0 of 9 |
| N30W+Y32S+T58I | 830 nM | 3 of 3 | 2 of 9 |
| L29M+I34P+G99H | 7.4 µM | 1 of 3 | 3 of 9 |
| F27K+S31L | 380 nM | 3 of 3 | 6 of 9 |
| G26N+S53M+R56Q | not detected | 0 of 3 | 0 of 9 |
| N30M+T58I+F105N | not detected | 0 of 3 | 1 of 9 |
| G103S+F105C | 13 nM | 3 of 3 | 0 of 9 |
| F27A+S35C+S107D | not detected | 0 of 3 | 0 of 9 |
| R57F+Y60R+S107C | not detected | 0 of 3 | 1 of 9 |
| V50N+Y52S+T58Y | not detected | 0 of 3 | 0 of 9 |
| G26A+T28C+G33F | 120 µM | 2 of 3 | 6 of 9 |
| N30P+G55R+F59A | not detected | 0 of 3 | 2 of 9 |
| S31R+G55I+A101F | 6.5 µM | 1 of 3 | 3 of 9 |
| Y52C+G61C+V64T | 51 µM | 2 of 3 | 4 of 9 |
| N30L+Y60V+D106I | 650 nM | 1 of 3 | 0 of 9 |
| I51G+Y60A+S107N | not detected | 0 of 3 | 1 of 9 |

Second part, the sequence after the result:

| apparent Kd | seen in | signal with controls | changes |
|---|---|---|---|
| not detected | 0 of 3 | 2 of 9 | L29R+D54W+G99Q |
| 31 µM | 1 of 3 | 3 of 9 | F59P+K65N |
| not detected | 0 of 3 | 2 of 9 | R57H+D62R+A101W |
| 1.3 µM | 2 of 3 | 0 of 9 | I34V+S53I+G55Q |
| not detected | 0 of 3 | 0 of 9 | L29S+T58Y+S107E |
| not detected | 0 of 3 | 1 of 9 | Y32C+R100W+T104H |
| not detected | 0 of 3 | 0 of 9 | G26W+I51A+T104S |
| 3.2 µM | 3 of 3 | 1 of 9 | N30E+Y60E+G61N |
| not detected | 0 of 3 | 1 of 9 | S53Q+R56L+K65A |
| not detected | 0 of 3 | 2 of 9 | L29P+Y52P+R57P |
| 7.4 µM | 1 of 3 | 0 of 9 | I34A+F59T |
| 76 µM | 1 of 3 | 1 of 9 | S35P+S53C+Y60G |
| not detected | 0 of 3 | 2 of 9 | S31K+G55I+V64G |
| not detected | 0 of 3 | 0 of 9 | D54M+D62N+D106T |
| not detected | 0 of 3 | 0 of 9 | S63F+R100M+F105L |
| not detected | 0 of 3 | 0 of 9 | D62Q+R100A+F105V |
| not detected | 0 of 3 | 2 of 9 | F27K+F105C+D106M |
| 81 nM | 2 of 3 | 0 of 9 | F105M+S107A |
| 9.6 µM | 3 of 3 | 4 of 9 | F27C+T58V+D106V |
| not detected | 0 of 3 | 1 of 9 | G26P+S53W+S63N |
| 4.9 µM | 1 of 3 | 2 of 9 | F59H+Y60A+S107G |
| 20 µM | 2 of 3 | 0 of 9 | T28P+S35C+T58P |
| 690 nM | 3 of 3 | 2 of 9 | S53H+S63R |
| not detected | 0 of 3 | 1 of 9 | F27A+G55F+F105M |
| 150 µM | 1 of 3 | 2 of 9 | G33C+I51P |
| 130 µM | 1 of 3 | 2 of 9 | G33H+G55R+D106V |
| 59 µM | 2 of 3 | 2 of 9 | Y32D+F59Y+F105M |
| not detected | 0 of 3 | 1 of 9 | T28I+S35V+A101N |
| not detected | 0 of 3 | 0 of 9 | F27S+T28I+Y52R |
| not detected | 0 of 3 | 1 of 9 | T28Y+I34W+D54C |

The first 7 entries again:

changes	apparent Kd	seen in	signal with controls
G26V+R56T+A101C	1.2 µM	3 of 3	0 of 9
G26W+F59K	260 nM	1 of 3	0 of 9
S31L+V50M+G103D	540 µM	2 of 3	3 of 9
G33S+D54H+T58P	72 µM	2 of 3	1 of 9
S35D+I51Q+D62C	46 µM	1 of 3	1 of 9
D54A+R57Q+K65R	47 µM	1 of 3	3 of 9
Y52T+R56Q+V64H	97 µM	1 of 3	2 of 9

Parent in this assay: reference entry 4.4 nM, copy in this library 13 µM (one replicate of three).